Reference: patent publication US5489524A, “Chimeric protein that has a human Rho motif and deoxyribonuclease activity” (The United States of America as represented by the …, priority 1992, dated 1996)

Tested on: Mammalian Endo-Exonuclease
Assay: ss- and ds-DNase activities of the purified endo-exonuclease with divalent metal ions, NaCl, ATP or GTP (release of acid-soluble radioactivity from 32P-labeled pBR322 DNA)
Type: biochemical, Monkey
Details: for Activity % ds-DNase / Activity % ss-DNase: 37° C.
Protocol: The assay mixture contained 100 mM Tris-HCl pH 8.0, 10 mM MgCl2, and 17 μg of ^32 P-labelled linearized plasmid DNA. One unit of activity is defined as the amount of deoxyribonuclease which renders 1 μg of DNA acid-soluble in 30 min at 37° C. The plasmid was labeled using a random oligo-priming kit (Pharmacia Fine Chemical).
The ratios are calculated with respect to the activity of 10 mM Mg^2+ (100%).
The nuclease activities of putative recombination nucleases of E. coli are known to be affected by ATP. Moreover S. cerevisiae endo-exonuclease is believed to contain a region homologous to GTP-binding sites. The effects of ATP and GTP on the purified mammalian endo-exonuclease were therefore chosen to study.

[1] = 0.1 mM nucleotide added, 10 mM Mg^2+
[2] = 0.5 mM nucleotide added, 10 mM Mg^2+
[3] = 1.0 mM nucleotide added, 10 mM Mg^2+
[4] = metal ion 0.5 mM, activity with 10 mM Mg^2+ = 100%
[5] = metal ion 5.0 mM, activity with 10 mM Mg^2+ = 100%

| SMILES | Activity % ds-DNase [1] | Activity % ss-DNase [1] | Activity % ds-DNase [2] | Activity % ss-DNase [2] | Activity % ds-DNase [3] | Activity % ss-DNase [3] | effect on ss-DNase and ds-DNase activities (0.1-1.0 mM) | ability to replace Mg^2+ as cofactor | Ratio of Activities for ss/ds-DNase (metal ion 0.5 mM) | Activity % ds-DNase [4] | Activity % ss-DNase [4] | Ratio of Activities for ss/ds-DNase (metal ion 5.0 mM) | Activity % ds-DNase [5] | Activity % ss-DNase [5] |
| --- | --- | --- | --- | --- | --- | --- | --- | --- | --- | --- | --- | --- | --- | --- |
| Nc1ncnc2c1ncn2[C@@H]1O[C@H](COP(=O)(O)OP(=O)(O)OP(=O)(O)O)[C@@H](O)[C@H]1O [ATP] | 70% | 88% | 77% | 87% | 60% | 77% | slightly inhibited | – | – | – | – | – | – | – |
| [Ca+2] [Ca^2+] | – | – | – | – | – | – | – | partially substitute for Mg^2+ | 0.8 | 80% | 67% | 0.8 | 57% | 40% |
